Converted amounts (≈) assume the structure as drawn.
Tests used:
COX-2 = COX-2 (Mus musculus, UniProt Q05769); assay: Evaluation of COX-2 activity: PGE2 formation in aspirin-treated, LPS-stimulated mouse peritoneal macrophages
COX-1 = COX-1 (Mus musculus, UniProt P22437); assay: Evaluation of COX-1 activity: PGE2 formation in mouse peritoneal macrophages without aspirin and LPS treatment

By UniProt entry, the sequences of proteins in these tests, tags left out. Residues count along the entry.
UniProt Q05769, 18-604 limits assumed: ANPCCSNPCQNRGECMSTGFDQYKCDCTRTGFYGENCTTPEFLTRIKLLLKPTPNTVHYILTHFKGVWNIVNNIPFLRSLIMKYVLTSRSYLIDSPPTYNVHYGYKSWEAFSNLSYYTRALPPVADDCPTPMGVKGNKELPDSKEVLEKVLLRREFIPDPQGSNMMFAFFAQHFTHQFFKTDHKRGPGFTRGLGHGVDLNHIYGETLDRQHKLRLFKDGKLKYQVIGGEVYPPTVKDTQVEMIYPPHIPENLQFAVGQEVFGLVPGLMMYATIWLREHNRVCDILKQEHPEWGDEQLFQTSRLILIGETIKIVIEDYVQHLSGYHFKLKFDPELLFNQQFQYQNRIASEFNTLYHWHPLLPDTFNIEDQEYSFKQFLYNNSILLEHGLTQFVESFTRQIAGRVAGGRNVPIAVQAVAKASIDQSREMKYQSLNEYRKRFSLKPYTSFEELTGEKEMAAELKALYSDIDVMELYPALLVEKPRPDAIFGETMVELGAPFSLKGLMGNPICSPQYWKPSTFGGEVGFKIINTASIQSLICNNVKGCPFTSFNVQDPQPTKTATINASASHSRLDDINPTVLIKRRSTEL
UniProt P22437, 27-602 limits assumed: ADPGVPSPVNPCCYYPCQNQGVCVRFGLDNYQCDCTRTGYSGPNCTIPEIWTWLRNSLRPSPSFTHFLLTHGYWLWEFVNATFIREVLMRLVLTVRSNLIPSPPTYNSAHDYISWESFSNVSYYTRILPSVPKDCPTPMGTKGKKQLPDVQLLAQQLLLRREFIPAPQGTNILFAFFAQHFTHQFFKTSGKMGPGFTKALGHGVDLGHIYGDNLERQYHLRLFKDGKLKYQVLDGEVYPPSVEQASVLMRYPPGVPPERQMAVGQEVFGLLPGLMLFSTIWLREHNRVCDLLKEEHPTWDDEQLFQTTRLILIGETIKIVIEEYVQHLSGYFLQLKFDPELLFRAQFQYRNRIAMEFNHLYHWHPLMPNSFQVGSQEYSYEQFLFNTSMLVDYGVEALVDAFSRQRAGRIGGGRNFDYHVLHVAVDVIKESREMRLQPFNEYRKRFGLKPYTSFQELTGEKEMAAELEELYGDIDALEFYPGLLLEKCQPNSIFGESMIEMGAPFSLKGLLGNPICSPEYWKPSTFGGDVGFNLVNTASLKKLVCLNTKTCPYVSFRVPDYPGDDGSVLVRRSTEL

- IC50, μg/ml COX-2 (COX-2): 0.3 µg/mL (≈ 0.832 µM)
- IC50, μg/ml COX-1 (COX-1): 50 µg/mL (≈ 139 µM)
Compound: CC1(C)OC(c2ccc(S(C)(=O)=O)cc2)=C(c2ccc(C=O)o2)C1=O
